Experimental data reported in patent US6500222B2, “Diureides and their use” (priority 1999, dated 2002).

Tested on: ryegrass
Conditions: in vivo

Question: malonic acid diureide [Compound 1A] was tested. Which “Remarks (plant damage)” value did it give?
Answer: no plant damage
